Ab-14 heavy chain CDR variants: yeast mating affinities

The target is the same throughout: PDVDLGDISGINAS, from the HR2 region of SARS-CoV-2 spike.

Parent: Ab-14, a human scFv built as VH, a 15-residue (Gly4Ser)3 linker, VL. Only the CDRs of the heavy chain vary.
VH: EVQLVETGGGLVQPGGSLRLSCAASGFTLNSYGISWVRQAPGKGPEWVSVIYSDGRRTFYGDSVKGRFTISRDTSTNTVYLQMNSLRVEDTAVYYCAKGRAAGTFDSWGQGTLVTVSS
VL: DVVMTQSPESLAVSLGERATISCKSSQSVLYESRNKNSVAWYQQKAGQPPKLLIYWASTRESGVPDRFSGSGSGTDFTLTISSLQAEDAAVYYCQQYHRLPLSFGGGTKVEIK

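These sequences belong to a second round, designed from the earlier measurements on random variants of the parent. Group labels follow the data file (Ctrl: baseline library sampled from a position-specific scoring matrix, with some repeated check sequences; Rand: our label for a block that the file lists under HC and that is probably the random mutants of the ten best first-round binders; En: ensemble of fine-tuned language models; GP: Gaussian process model; GPLM: also part of the Gaussian process libraries; HC: hill climbing; Gen: genetic algorithm; Gibbs: Gibbs sampling; a sequence that several methods proposed may carry one label only). In AlphaSeq, yeast of one mating type display the scFv and yeast of the other type display the target. The frequency of each diploid, read from paired DNA barcodes, reflects how well the two displayed proteins bind. The ratio of observed to expected reads was calibrated, replicate by replicate, on BCL2-family standards whose Kd was known from biolayer interferometry. Each pool was mated in six replicate cultures.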

Variants are written as CDR1, CDR2 and CDR3 of the heavy chain (limits as in the source). Parent: GFTLNSYGIS, VIYSDGRRTFYGDSVK, GRAAGTFDS. Each Kd is an estimate from the mating assay, the geometric mean of the replicates in which the pair was seen; lower is stronger. A pair that was not seen in any replicate is written "nd"; this usually means weak binding, but a binder can also be missed. Background: pairings of all heavy chain designs with three empty control strains gave a value in 1% of cases (median 120 nM, 5th percentile 7.0 nM). Values in that range, when seen in few replicates, are hard to tell from nonspecific mating.

CDR-H1,CDR-H2,CDR-H3,group,Kd (apparent),seen in
GFDLNEYGIS,VIYADGRRTFYIDSVK,GTVAGTFDS,En_HC,1.8 nM,6 of 6
GFDLDEYGIS,VIYADGMRTAYADDVK,GNVAGTFDQ,En_Gen,770 pM,2 of 6
GFTLDQYGIS,VIYSDGRRTFYSDSVK,GRTAGTFDS,GPLM_HC,540 pM,6 of 6
GFTLNDYGIS,VIYSDGKRTFYLDSVK,GRAAGTFDS,Ctrl,27 nM,5 of 6
GFTLNSYGIS,VIYSDGRRTFYGDSVK,GEAAGGFDS,Ctrl,10 nM,6 of 6
GFDLNEYGIS,VIYADGRRTFYVDSVK,GVNAGTFDV,En_HC,160 pM,6 of 6
GFTLNHYGIS,VIYSDGRRTFYKDSVK,GRAAGTFDS,Ctrl,72 nM,2 of 6
GENLEEYGIS,VIYADGFRTQYAEKVK,GQQGGFFIK,En_Gibbs,540 nM,1 of 6
KFQLNSYGIS,VIYSDGKRTFYADSVK,GRNAGTFDS,GP_Gibbs,570 nM,2 of 6
GFTLNEYGIS,VIYSDGRRTFYSDSVK,GQAAGTFDK,GPLM_Gen,1.4 nM,6 of 6
GFKLNEYGIS,VIYSDGRRTIYIDSVK,GRAAGTFDS,GP_HC,87 nM,5 of 6
GFDLNEYGIS,VIYADGMRTAYIDNVK,GEVAGTFDV,En_Gen,740 pM,6 of 6
GEELNSYGIS,VIYSDGRRTEYGDSVK,GRAAGTFDS,Ctrl,nd,0 of 6
GFDLNEYGIS,VIYADGQRTAYTDSVK,GNQAGTFDV,En_Gen,200 pM,6 of 6
GFDLNEYGIS,VIYADGIRTAYADSVK,GNEAGTFDV,En_Gen,76 nM,1 of 6
GNSLDDYGIS,VIYADGRRTMYAESVK,GQIAGSFFH,En_Gibbs,30 nM,1 of 6
GFTLNEYGIS,VIYSDGRRTFYTDSVK,GRTAGTFYS,GP_HC,210 nM,2 of 6
GFDLNSYGIS,VIYSDGRRTMYGDSVK,GRVAGTFDS,GP_Gibbs,870 pM,6 of 6
GKSLNEFGIS,VIYADGVRRAYADDVK,GNLAGHFIS,En_Gibbs,nd,0 of 6
GFWLYSFGIS,VIYSDGRRTFYGDSVK,GRNAGTFDS,Ctrl,38 nM,1 of 6
GFQLNSYGIS,VIYSDGRRTFYGDKVK,GRAAGTFDS,Ctrl,14 nM,3 of 6
GFTLESYGIS,VIYSDGRRTFYGDSVE,GDASGTFDS,Ctrl,nd,0 of 6
GFDLNEYGIS,VIYADGRRTFYADSVK,GKNAGTFDV,En_HC,200 pM,6 of 6
GETLNEYGIS,VIYSDGRRTFYGDSVK,GRTAGTFDS,GP_Gibbs,4.2 nM,6 of 6
GKHLDEYGIS,VIYADGQRVFYSNTVK,GIQGFTVDV,En_Gibbs,nd,0 of 6
GFSLDEMGIS,VIYADGKRSFYQDNVK,GVNSVTFNV,En_Gibbs,nd,0 of 6
GFTLRSYGIS,VIYSDGRRTFYGDSVK,TRAAGTFDS,Ctrl,nd,0 of 6
AFDLNSYGIS,VIYSDGRRTFYIDSVK,GNAAGTFDS,GP_Gibbs,9.7 nM,6 of 6
GFQLDEYGIS,VIYADGMRAEYKNSVK,GNYGIVFTV,En_Gibbs,nd,0 of 6
GFTLDSYGIS,VIYSDGRRTFYGDSVK,GRAAGTRLS,Rand,nd,0 of 6
GFELNSYGIS,VIYSDGRRTFYCDAVK,GKTAGTFDS,GP_Gibbs,15 nM,6 of 6
GRDLDEYGIS,VIYADGTRKMYAVNFK,GEHGGTFLM,En_Gibbs,nd,0 of 6
GFDLNEYGIS,VIYADGVRTVYADSVK,GQNAGTFDV,En_Gen,140 nM,4 of 6
GFSLDEYGIS,VIYADGKRTFYADDVK,GNVAGTFDV,En_HC,250 pM,6 of 6
GFDLDEYGIS,VIYADGRRTFYADSVK,GELAGTFDS,En_HC,230 pM,6 of 6
GFDLNEYGIS,VIYADGQRTAYTDSVK,GHAAGTFDL,En_HC,2.3 nM,6 of 6
LFQLNEYGIS,VIYSDGRRTFYRDSVK,GRTAGTFDS,GP_HC,17 nM,6 of 6
GFSLNSYGIS,VIYSDGKRTFYSDSVK,GQAAGTFDS,GPLM_Gen,2.0 nM,6 of 6
GFTLNSYGIS,VIYADGRRTFYGDSVK,GVAAGTFDS,GPLM_Gen,6.6 nM,6 of 6
GFNLNSYGIS,VIYSDGRRTFYGDSVK,GMNAGTFDS,GP_Gibbs,4.6 nM,3 of 6
GFTLNSYGIS,VIYSDGRRTFYGDSVK,GCIAGTFDQ,GP_HC,480 nM,3 of 6
GTELNSYGIS,VIYSDGRRTFYGDSVK,GRAAGTFLS,Ctrl,3.6 µM,1 of 6
GFALTEYGIS,VIYADGRRTAYSQSVK,GLNGGIIVV,En_Gibbs,nd,0 of 6
GFDLNSYGIS,VIYSDGRRTFYHDRVK,GRTAGTFDS,GP_Gen,8.3 nM,6 of 6
GRTLNSYGIS,VIYSDGRRTFYGDSVK,GRAAGPFDS,Ctrl,nd,0 of 6
GFDLNEYGIS,VIYADGRRTAYVDDVK,GNNAGTFDV,En_Gen,200 pM,6 of 6
GFDLNEYGIS,VIYADGMRTAYVDNVK,GEVAGTFDV,En_Gen,650 pM,6 of 6
GFDLDEYGIS,VIYADGQRTAYADSVK,GQVAGTFDV,En_Gen,240 pM,6 of 6
GFTLNSYGIS,VIYSDGRRTFYGDSVK,GREAGVFDS,Ctrl,64 nM,5 of 6
GFDLNEYGIS,VIYADGRRTFYADKVK,GENAGTFDI,En_HC,110 pM,5 of 6
GFDLNEYGIS,VIYADGMRTFYTDSVK,GEFAGTFDA,En_HC,1.6 nM,6 of 6
GFELNSYGIS,VIYSDGRRTFYDDSVK,GQVAGTFDS,GP_HC,2.6 nM,6 of 6
GFELNSYGIS,VIYSDGRRTFYGDDVK,GEAAGTFDS,GP_Gen,3.7 nM,6 of 6
GFSLNSYGIS,VIYSDGIRTFYGDSVK,GRWAGLFDS,Ctrl,nd,0 of 6
GFTLNQYGIS,VIYSDGCRSFYSDSVK,GRAAKFFDS,Rand,2.8 nM,6 of 6
GFNLNNYGIS,VIYSDGRRTFYGDSVK,GRTAGTFDS,GPLM_Gen,3.5 nM,6 of 6
GFSLNSYGIS,VIYSDGRRTFYADMVK,GTAAGTFDS,GP_Gibbs,2.7 nM,4 of 6
GNDIDEYGIS,VIYADGRRTAYDEAVK,GEIAGSFFH,En_Gibbs,nd,0 of 6
GFDLNEYGIS,VIYADGIRTFYADSVK,GNAAGTFDQ,En_HC,330 pM,6 of 6
GFDLNSYGIS,VIYSDGRRTAYGDEVK,GRNAGTFDS,GP_Gibbs,960 pM,6 of 6
GFELNSYGIS,VIYSDGRRTFYVDSVK,GKTAGTFDT,GP_Gibbs,2.9 nM,1 of 6
GFSLNQYGIS,VIYSDGRRTFYVDSVK,GRAAGTFDS,GPLM_HC,540 pM,2 of 6

Picked from the list: the 5 lowest averages where every replicate gave a value.

CDR-H1,CDR-H2,CDR-H3,group,Kd (apparent),seen in
GFDLNEYGIS,VIYADGRRTFYVDSVK,GVNAGTFDV,En_HC,160 pM,6 of 6
GFDLNEYGIS,VIYADGRRTFYADSVK,GKNAGTFDV,En_HC,200 pM,6 of 6
GFDLNEYGIS,VIYADGQRTAYTDSVK,GNQAGTFDV,En_Gen,200 pM,6 of 6
GFDLNEYGIS,VIYADGRRTAYVDDVK,GNNAGTFDV,En_Gen,200 pM,6 of 6
GFDLDEYGIS,VIYADGRRTFYADSVK,GELAGTFDS,En_HC,230 pM,6 of 6

The parent sequence was in this pool as ten entries: three were never detected, three once, and four in most replicates, with averages from 2.2 nM to 240 nM. In the paper, a design with two or fewer of six values counts as a poor binder. The range of this assay differs from that of the first round, and the authors advise against merging the two.

The measurements come from Li et al. 2023 (doi:10.1038/s41467-023-39022-2) through the FLAb antibody collection.